Reference: patent EP4831175A1, “COMPOUND AND SALT THEREOF, USE IN PREPARATION OF DRUG FOR TREATING CANCER AND KINASE INHIBITOR, AND DRUG FOR TREATING CANCER” (dated 2026)

What was measured:
[1] = system: human acute monocytic leukemia cell strain MV4-11 (expressing FLT3/ITD mutant gene); experiment: CCK-8 cancer cell proliferation assay; details: read-out: MV-411 IC50; incubated for 72 hours, CCK-8, absorbance at 450 nm
Description: (§1) The inhibitory effect on cancer cell proliferation was assessed by measuring the effect of D18 and deuterated series drugs on cancer cell proliferation. Human acute monocytic leukemia cell strain MV4-11 (expressing FLT3/ITD mutant gene) and human acute myeloid leukemia cell strain MOLM-13 (expressing FLT3/ITD mutant gene and wild-type FLT3 gene) were selected. Different concentrations of the above compounds (25 nM, 50 nM, 100 nM, 200 nM, 400 nM in DMSO) were added to the above cells and incubated for 72 hours. The Cell Counting Kit-8 (CCK-8) reagent was used to detect the absorbance at 450 nm using a microplate reader to obtain OD values, and IC50 was further calculated. The experimental results are shown. Table 1 IC50 values of compounds against MOLM-13 and MV4-11 cells

[2] = system: human acute myeloid leukemia cell strain MOLM-13 (expressing FLT3/ITD mutant gene and wild-type FLT3 gene); experiment: CCK-8 cancer cell proliferation assay; details: read-out: MOLM-13 IC50; incubated for 72 hours, CCK-8, absorbance at 450 nm
Description: as §1

[3] = system: MV-4-11 cells carrying the FLT3/ITD mutation gene; experiment: Soft agar colony formation assay; details: 2.5 nM, 5 nM, 10 nM, 20 nM, 15 days, FIG. 3; for size of clones formed by MV4-11 cells: when the drug dosage was increased
Description: (§2) The proliferation ability of MOLM-13 and MV-4-11 cells carrying the FLT3/ITD mutation gene was assessed by soft agar colony formation assay. The two compounds at different concentrations (2.5 nM, 5 nM, 10 nM, 20 nM in DMSO) were applied to MOLM-13 and MV-4-11 cell strains carrying the FLT3/ITD mutation gene. The time required for sufficient colony formation was typically 15 days, with medium changed twice a week.

[4] = system: MOLM-13 cells carrying the FLT3/ITD mutation gene; experiment: Soft agar colony formation assay; details: 2.5 nM, 5 nM, 10 nM, 20 nM, 15 days, FIG. 3; for size of clones formed by MOLM-13 cells: when the drug dosage was increased
Description: as §2

MOLM-13 cells [5] = experiment: Nude mouse subcutaneous tumor-bearing model; details: 50 mg/kg daily oral gavage, 2 to 3 weeks; FIG. 4
Description: To assess the tumor inhibitory effect in vivo, a nude mouse subcutaneous tumor-bearing model was introduced. More than 30 five-week-old mice (Balb/c-nu male mice, purchased from Hangzhou Ziyuan Experimental Animal Technology Co., Ltd.) were subcutaneously inoculated with MOLM-13 cells at 1×10^7 cells per mouse. The body weight changes and tumor volume (tumor volume = tumor length × tumor width^2 / 2) of the mice were recorded daily. After 10 days, when the mouse tumor volume reached 200-400 mm^3, the mice were randomly divided into 3 groups: vehicle group, D18 50 mg/kg dose group, and D18-D6 50 mg/kg dose group, with 6-10 mice per group. The following treatments were administered: Group 1 received daily oral gavage of vehicle (a liquid mixture formulation of 5% DMSO, 40% PEG-400, and 55% physiological saline); Group 2 received daily oral gavage of D18 liquid mixture formulation at 50 mg/kg; Group 3 received daily oral gavage of D18-D6 liquid mixture formulation at 50 mg/kg. The day of first administration was recorded as day 0, and administration was continued daily for 2 to 3 weeks of observation.

MOLM-13 cells [6] = experiment: Cell cycle distribution by PI staining and flow cytometry; details: 100 nM, 200 nM, 300 nM, 400 nM; 24 hours of treatment; FIG. 1
Description: (§3) The effects of D18 and D18-D6 on the cell cycle distribution of human acute monocytic leukemia cell strain MV4-11 and acute myeloid leukemia cell strain MOLM-13 were tested. The two compounds at different concentrations (100 nM, 200 nM, 300 nM, 400 nM in DMSO) were applied to acute myeloid leukemia cell MV4-11 and MOLM-13 cell strain carrying the FLT3/ITD mutation gene. After 24 hours of treatment, cells were collected, washed twice with 1X PBS buffer solution, fixed with 75% ethanol at -20°C for 24 hours, and washed twice again with 1X PBS buffer. 0.5 mL 1X PBS buffer and 0.5 mL PI staining solution (purchased from BD Bioscience, USA) were added to the cells, and the cells were placed in the dark at 37°C for 15 minutes for staining. Cell cycle distribution was detected using a flow cytometer (BD FACS Calibur). Data were analyzed using FlowJo software (Ashland, OR).

MV4-11 cells = experiment: as above; details: 100 nM, 200 nM, 300 nM, 400 nM; 24 hours of treatment; FIG. 2
Description: as §3

[7] = Pharmacokinetic properties in rats after intravenous and oral administration; details: for CLz / Cmax / MRT(0-∞) / T1/2 / Tmax / Vz / F / AUC(0-1) / AUC(0-∝) / MRT(0-∝): mean
Source text: The present invention also evaluated the pharmacokinetic (PK) properties of D18 and D18-D6 in rats following intravenous and oral administration. […] Table 2 Pharmacokinetic properties of D18

**Q.** Which IC50 [1] does the source give for [2H]c1nc(N)c2c(-c3ccc(Oc4c([2H])c([2H])c([2H])c([2H])c4[2H])cc3)nn([C@@H]3CCCN(C(=O)C([2H])([2H])N(C)C)C3)c2n1 here?
**A.** 1250 nM

**Q.** What about the IC50 [2] of the same molecule?
**A.** 1340 nM

**Q.** For [2H]c1c([2H])c([2H])c(Oc2ccc(-c3nn([C@@H]4CCCN(C(=O)CN(C)C)C4)c4ncnc(N)c34)cc2)c([2H])c1[2H], which IC50 [1] is on record?
**A.** 490 nM

**Q.** What about the IC50 [2] of the same molecule?
**A.** 450 nM

**Q.** For [2H]c1c([2H])c([2H])c(Oc2ccc(-c3nn([C@@H]4CCCN(C(=O)C([2H])([2H])N(C)C([2H])([2H])[2H])C4)c4ncnc(N)c34)cc2)c([2H])c1[2H], which IC50 [1] is on record?
**A.** 730 nM

**Q.** And the IC50 [2]?
**A.** 850 nM

**Q.** For [2H]c1nc(N)c2c(-c3ccc(Oc4c([2H])c([2H])c([2H])c([2H])c4[2H])cc3)nn([C@@H]3CCCN(C(=O)C([2H])([2H])N(C)C([2H])([2H])[2H])C3)c2n1, which IC50 [1] is on record?
**A.** 1250 nM

**Q.** What about the IC50 [2] of the same molecule?
**A.** 1450 nM

**Q.** What does the source list for [2H]C([2H])([2H])N(C)C([2H])([2H])C(=O)N1CCC[C@@H](n2nc(-c3ccc(Oc4ccccc4)cc3)c3c(N)ncnc32)C1?
**A.** IC50 [1]: 451 nM; IC50 [2]: 560 nM

**Q.** Which results are given for [2H]C([2H])([2H])N(C([2H])([2H])[2H])C([2H])([2H])C(=O)N1CCC[C@@H](n2nc(-c3ccc(Oc4ccccc4)cc3)c3c(N)ncnc32)C1?
**A.** IC50 [1]: 530 nM; IC50 [2]: 570 nM

**Q.** Which IC50 [1] does the source give for [2H]c1c([2H])c([2H])c(Oc2ccc(-c3nn([C@@H]4CCCN(C(=O)CN(C)C([2H])([2H])[2H])C4)c4ncnc(N)c34)cc2)c([2H])c1[2H] here?
**A.** 560 nM

**Q.** What about the IC50 [2] of the same molecule?
**A.** 450 nM

**Q.** What does the source list for [2H]C([2H])([2H])N(C)CC(=O)N1CCC[C@@H](n2nc(-c3ccc(Oc4ccccc4)cc3)c3c(N)ncnc32)C1?
**A.** IC50 [1]: 42 nM; IC50 [2]: 48 nM

**Q.** What does the source list for [2H]C([2H])([2H])N(CC(=O)N1CCC[C@@H](n2nc(-c3ccc(Oc4ccccc4)cc3)c3c(N)ncnc32)C1)C([2H])([2H])[2H]?
**A.** size of clones formed by MV4-11 cells [3]: significantly reduced in size; number of colonies ([3]; MV4-11): markedly reduced; size of clones formed by MOLM-13 cells [4]: significantly reduced in size; number of colonies ([4]; MOLM-13): markedly reduced; increase in mouse tumor volume (MOLM-13 cells [5]): hardly grew; mouse tumor growth (MOLM-13 cells [5]): strongly inhibited; cell cycle of MOLM-13 cells (MOLM-13 cells [6]): arrested in the G0-G1 phase in a dose-dependent manner; cell cycle of MV4-11 cells (MV4-11 cells): arrested in the G0-G1 phase in a dose-dependent manner; IC50 [1]: 27 nM; IC50 [2]: 31 nM; bioavailability [7]: approximately 42.51%; half-life ([7]; iv): approximately 1.9 h; CLz ([7]; iv(1mg/kg)): 2.02 L/h/kg; Cmax ([7]; iv(1mg/kg)): 422.341 µg/L; MRT(0-∞) ([7]; iv(1mg/kg)): 2.393 h; T1/2 ([7]; iv(1mg/kg)): 1.898 h; Tmax ([7]; iv(1mg/kg)): 0.136 h; Vz ([7]; iv(1mg/kg)): 5.661 L/kg; half-life ([7]; po): 4.3 h; CLz ([7]; po(10mg/kg), Table 3): 4.997 L/h/kg; Cmax ([7]; po(10mg/kg), Table 3): 184.886 µg/L; F ([7]; po(10mg/kg), Table 3): 42.51%; MRT(0-∞) ([7]; po(10mg/kg), Table 3): 5.957 h; T1/2 ([7]; po(10mg/kg), Table 3): 4.333 h; Tmax ([7]; po(10mg/kg), Table 3): 2.583 h; Vz ([7]; po(10mg/kg), Table 3): 30.65 L/kg

**Q.** Which results are given for [2H]C([2H])(C(=O)N1CCC[C@@H](n2nc(-c3ccc(Oc4ccccc4)cc3)c3c(N)ncnc32)C1)N(C)C?
**A.** IC50 [1]: 610 nM; IC50 [2]: 520 nM

**Q.** Which results are given for [2H]c1nc(N)c2c(-c3ccc(Oc4c([2H])c([2H])c([2H])c([2H])c4[2H])cc3)nn([C@@H]3CCCN(C(=O)C([2H])([2H])N(C([2H])([2H])[2H])C([2H])([2H])[2H])C3)c2n1?
**A.** IC50 [1]: 1450 nM; IC50 [2]: 1230 nM

**Q.** For CN(C)CC(=O)N1CCC[C@@H](n2nc(-c3ccc(Oc4ccccc4)cc3)c3c(N)ncnc32)C1, which “size of clones formed by MV4-11 cells” value [3] is on record?
**A.** significantly reduced in size

**Q.** What about the “size of clones formed by MOLM-13 cells” value [4] of the same molecule?
**A.** significantly reduced in size

**Q.** And the “increase in mouse tumor volume” value (MOLM-13 cells [5])?
**A.** significantly slowed

**Q.** And the mouse tumor growth (MOLM-13 cells [5])?
**A.** significantly inhibited

**Q.** And the “cell cycle of MOLM-13 cells” value (MOLM-13 cells [6])?
**A.** arrested in the G0-G1 phase in a dose-dependent manner

**Q.** What about the “cell cycle of MV4-11 cells” value (MV4-11 cells) of the same molecule?
**A.** arrested in the G0-G1 phase in a dose-dependent manner

**Q.** What about the IC50 [1] of the same molecule?
**A.** 62 nM

**Q.** And the IC50 [2]?
**A.** 81 nM

**Q.** What about the bioavailability [7] of the same molecule?
**A.** approximately 35.93%

**Q.** What about the half-life ([7]; iv) of the same molecule?
**A.** approximately 1.5 h

**Q.** And the “AUC(0-1)” value ([7]; iv(tmg/kg))?
**A.** 684.615 µg·h/L

**Q.** And the “AUC(0-∝)” value ([7]; iv(tmg/kg))?
**A.** 695.331 µg·h/L

**Q.** And the CLz ([7]; iv(tmg/kg))?
**A.** 1.488 L/h/kg

**Q.** What about the Cmax ([7]; iv(tmg/kg)) of the same molecule?
**A.** 767.665 µg/L

**Q.** What about the “MRT(0-∝)” value ([7]; iv(tmg/kg)) of the same molecule?
**A.** 1.49 h

**Q.** And the T1/2 ([7]; iv(tmg/kg))?
**A.** 1.537 h

**Q.** And the Tmax ([7]; iv(tmg/kg))?
**A.** 0.017 h

**Q.** And the Vz ([7]; iv(tmg/kg))?
**A.** 3.304 L/kg

**Q.** What about the half-life ([7]; po) of the same molecule?
**A.** 3.6 h

**Q.** What about the “AUC(0-1)” value ([7]; po(10mg/kg), Table 2) of the same molecule?
**A.** 2465.816 µg·h/L

**Q.** What about the “AUC(0-∝)” value ([7]; po(10mg/kg), Table 2) of the same molecule?
**A.** 2498.188 µg·h/L

**Q.** What about the CLz ([7]; po(10mg/kg), Table 2) of the same molecule?
**A.** 4.127 L/h/kg

**Q.** What about the Cmax ([7]; po(10mg/kg), Table 2) of the same molecule?
**A.** 304.121 µg/L

**Q.** What about the F ([7]; po(10mg/kg), Table 2) of the same molecule?
**A.** 35.93%

**Q.** What about the “MRT(0-∝)” value ([7]; po(10mg/kg), Table 2) of the same molecule?
**A.** 5.646 h

**Q.** And the T1/2 ([7]; po(10mg/kg), Table 2)?
**A.** 3.646 h

**Q.** And the Tmax ([7]; po(10mg/kg), Table 2)?
**A.** 3 h

**Q.** And the Vz ([7]; po(10mg/kg), Table 2)?
**A.** 21.50 L/kg
